Earlier results in patent publication US20060172019A1 (priority 2003, published 2006).

Protein sequences, listed by entry. Tags and fused reporters are not part of them.
UniProt P34972, whole entry: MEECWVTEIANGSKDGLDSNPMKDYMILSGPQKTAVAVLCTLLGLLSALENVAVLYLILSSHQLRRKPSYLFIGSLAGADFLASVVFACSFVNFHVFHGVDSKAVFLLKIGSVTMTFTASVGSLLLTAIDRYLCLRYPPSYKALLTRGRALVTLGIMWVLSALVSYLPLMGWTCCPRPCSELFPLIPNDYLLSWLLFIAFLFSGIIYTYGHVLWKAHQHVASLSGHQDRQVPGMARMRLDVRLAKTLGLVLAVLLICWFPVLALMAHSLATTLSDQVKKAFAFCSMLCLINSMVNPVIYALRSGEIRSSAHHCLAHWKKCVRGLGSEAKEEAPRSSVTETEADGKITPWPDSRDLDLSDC

Biological target: CB2 receptor (Homo sapiens, UniProt P34972)
Settings: cited from earlier work

Cc1ccc(Cn2nc(C(=O)NC3C4(C)CCC(C4)C3(C)C)cc2-c2ccc(Cl)c(C)c2)cc1 [SR144528, 5-(4-Chloro-3-methyl-phenyl)-1-(4-methyl-benzyl)-1H-pyrazole-3-carboxylic acid ((1S)-1,3,3-trimethylbicyclo[2.2.1]hept-2endo,exo-yl)-amide]
Classification CB2 (Table 1): Inverse agonist | CB receptor function (CB2) (Table 2): CB2 inverse agonist
